These results are taken from PubChem BioAssay AID504797 (The Scripps Research Institute Molecular Screening Center, 2011).

The target of the assay is cAMP-dependent protein kinase type II-beta regulatory subunit (Homo sapiens) (UniProt P31323). The experiment in a line: activators of PKA-R2B holoenzyme, confirmation, biochemical, fluorescence polarization, human (AID 504797). The settings on record: PKA-R2B complex, at 11.4 µM, active compounds read high. Background: Fluorescence polarisation rises when a labelled molecule tumbles more slowly, as on binding a larger partner.

The entries are a selection whose mix differs from that of the whole data set. Calls of active or inactive are those of the source. Rule as the data show it: active = activation above about 19%; inactive = the rest.

Turning to `c1nnnn1CCn1cnnn1`, the activation was inactive: 1.84%.
